# The entries are a selection whose mix differs from that of the whole data set. Some of these compounds have results that are not shown, active ones among them. Calls of active or inactive are those of the source.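 The calls were made as follows: active = calcium signal cut by more than 3 SD below the full-agonist control yet still positive, in both repeats and the earlier primary screen; inactive = the rest.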
# Amino acid sequences for entries named in this document (tags omitted).
# UniProt Q9QUQ5, whole entry: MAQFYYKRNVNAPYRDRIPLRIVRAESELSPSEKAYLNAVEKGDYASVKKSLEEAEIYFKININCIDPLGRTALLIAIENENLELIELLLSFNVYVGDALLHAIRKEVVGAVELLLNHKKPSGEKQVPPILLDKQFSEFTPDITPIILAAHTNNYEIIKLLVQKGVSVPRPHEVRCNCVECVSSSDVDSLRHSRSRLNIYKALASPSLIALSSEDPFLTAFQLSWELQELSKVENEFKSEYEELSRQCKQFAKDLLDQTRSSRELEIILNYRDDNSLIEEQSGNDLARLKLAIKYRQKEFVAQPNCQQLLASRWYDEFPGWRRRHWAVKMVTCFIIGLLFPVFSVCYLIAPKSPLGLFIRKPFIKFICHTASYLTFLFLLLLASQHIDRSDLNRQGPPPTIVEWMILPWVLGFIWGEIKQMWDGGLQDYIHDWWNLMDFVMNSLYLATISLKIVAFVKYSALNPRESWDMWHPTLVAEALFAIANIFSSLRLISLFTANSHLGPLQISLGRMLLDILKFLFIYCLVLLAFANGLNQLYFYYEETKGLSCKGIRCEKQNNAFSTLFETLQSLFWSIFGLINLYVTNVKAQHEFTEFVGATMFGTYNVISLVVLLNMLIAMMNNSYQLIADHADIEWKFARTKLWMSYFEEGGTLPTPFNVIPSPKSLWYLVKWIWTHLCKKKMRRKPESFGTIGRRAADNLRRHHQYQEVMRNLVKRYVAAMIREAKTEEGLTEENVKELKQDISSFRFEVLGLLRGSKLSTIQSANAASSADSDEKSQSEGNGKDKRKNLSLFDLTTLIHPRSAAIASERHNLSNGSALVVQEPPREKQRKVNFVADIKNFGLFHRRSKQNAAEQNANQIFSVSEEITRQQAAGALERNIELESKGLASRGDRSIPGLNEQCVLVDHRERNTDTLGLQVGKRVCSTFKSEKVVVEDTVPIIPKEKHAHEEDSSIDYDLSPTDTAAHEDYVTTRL
# Target: Short transient receptor potential channel 4 (Mus musculus) (UniProt Q9QUQ5)
# Experiment: blockers of DAMGO-evoked TRPC4 calcium flux – cell-based, Fluo4, HEK293 TRPC4beta/mu-opioid, confirmation (AID 2636)
# Details: at 10 µM
row,SMILES,outcome
1,CN(C)c1ccc(C(=O)NCC2(N(C)C)CCCCC2)cc1,inactive
